Results from patent publication US6087334A, “Anti-diabetic peptides” (Amylin Pharmaceuticals, Inc., priority 1998, dated 2000).

Tested on: gastric emptying in conscious rats
Settings: conscious rat model, dose response
Excerpt: Peptide compounds of the present invention may be evaluated for amylin agonist activity using the methods of measuring the rate of gastric emptying disclosed in, for example, Young et al., Diabetologia, 38(6):642-648 (1995). In a phenol red method, which is described in Example D below, conscious rats receive by gavage an a caloric gel containing methyl cellulose and a phenol red indicator. Twenty minutes after gavage, animals are anesthetized using halothane, the stomach exposed and clamped at the pyloric and lower esophageal sphincters, removed and opened into an alkaline solution. Stomach content may be derived from the intensity of the phenol red in the alkaline solution, measured by absorbance at a wavelength of 560 nm. In a tritiated glucose method, conscious rats are gavaged with tritiated glucose in water. […] Tritium in the plasma separated from tail blood is collected at various timepoints and detected in a beta counter. […]
Gastric emptying was measured using a modification (Plourde et al., Life Sci. 53:857-862 (1993)) of the original method of Scarpignato et al. (Arch. Int. Pharmacodyn. Ther. 246:286-295 (1980)). […] Stomach content was derived from the intensity of the phenol red in the alkaline solution, measured by absorbance at a wavelength of 560 nm. […] In other experiments, particulate gastric contents were centrifuged to clear the solution for absorbance measurements. […]

In the case of “CGRP (ACDTATCVTHRLAGLLSRSGGVVKNNFVPTNVGSKAF; Calcitonin gene-related peptide 1; UniProt P06881 83-119, looked up)”, the “Inhibition of gastric emptying (in words)” value is reported as “dose-dependently inhibit gastric emptying”.
